Source: PubChem BioAssay (National Center for Advancing Translational Sciences (NCATS))
This is a sample that favours compounds with a hit; in the whole collection about 16% have one here.
TDP1 inh: inhibitors of human tyrosyl-DNA phosphodiesterase TDP1; Potency, µM (doses to about 130 µM), for inactives: at the highest dose activity change, negative = inhibition, most hits filed as inhibitors; Q9NUW8; recombinant TDP1, AlphaScreen DNA substrate cleavage; 350,000 compounds, 0.28% hits; AID 485290; note: potency is the fitted concentration of half-maximal effect; % is set by controls: 0 for no effect and ±100 for the full control effect; nearly all actives have a fitted effect of over 40% in size
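Recombinant human Tdp1 (E. coli-expressed, 1 nM final) preincubated with compounds 15 min at room temperature, then 5'-biotin/3'-phosphotyrosine-FITC DNA substrate (15 nM final) added for 5 min. AlphaScreen beads (10 ug/ml final) added 10 min; cleavage lowers signal.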
uPA generation: cell surface uPA generation inhibition; 330,000 compounds, 0.31% hits; Potency, µM (top dose mostly 38.3 µM), for the others: at the top dose activity change, negative = inhibition, most hits filed as inhibitors; cell surface uPA generation assay, qHTS; AID 540303; active = well fitted inhibition curve with a large enough effect; inconclusive = small, poorly fitted or top-dose-only effect; inactive = no such curve, though single readings can be large or run the other way; tested in mouse RAW 264.7 cells; note: potency is the fitted concentration of half-maximal effect; % is set by controls: 0 for no effect and ±100 for the full control effect; nearly all actives have a fitted effect of over 55% in size
miR-21 reporter: raises the signal of a miR-21 reporter | HeLa miR-21 FLuc reporter, luciferase, 48 h | Potency, µM (doses to about 38.3 µM), without a hit: at the top dose reporter change, positive = more light | 340,000 tested, under 10 active | AID 2288; active = well fitted rising curve with a large enough effect; inconclusive = small, poorly fitted or top-dose-only effect; inactive = no such curve, though single readings can be large or run the other way;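 note: % of control where 0% means no effect; miR-21 action dims this reporter so a rising signal means less miR-21 action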
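Luminescence from a firefly luciferase reporter carrying a miR-21 binding site downstream, stably expressed under a CMV promoter in HeLa cells that make miR-21 endogenously, reports miRNA modulation after 48 h compound exposure up to approximately 40uM final.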
DT40 TDP1 no CPT: qHTS for Inhibitors of human tyrosyl-DNA phosphodiesterase 1 (TDP1): qHTS in cells in absence of CPT. DT40 Tdp1-/- hTDP1 cells, no CPT, ATP luminescence, 48 h. AID 686978, 2013. 420,000 compounds, 15% hits. Potency, µM (titrated, usually from 46.2 µM), for the others: at the top dose activity change, negative = growth inhibition, usual class: inhibitors; note: potency is the fitted concentration of half-maximal effect; % is set by controls: 0 for no effect and ±100 for the full control effect; nearly all actives have a fitted effect of over 55% in size
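DT40 Tdp1-/-;hTDP1 cells, no CPT (DMSO vehicle only), 400 cells/well; compounds pin-transferred; ≥48 hr, 37 °C; CellTiter-Glo 30 min RT dark, luminescence read.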
TDP1 cell CPT: growth inhibition of DT40 Tdp1-/-;hTDP1 cells with camptothecin (screen for TDP1 inhibitors) | chicken DT40 Tdp1-/-;hTDP1 cells + 20 nM CPT, ATP luminescence, 48 h | Potency, µM (doses to about 46.2 µM), for inactives: top-dose activity change, negative = growth inhibition, hits mostly inhibitors | 420,000 compounds, 12% hits; note: potency is the fitted concentration of half-maximal effect; % is set by controls: 0 for no effect and ±100 for the full control effect; nearly all actives have a fitted effect of over 55% in size
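Chicken DT40 Tdp1-/- cells stably complemented with human TDP1 were seeded at 400 cells/well in medium containing 20 nM camptothecin, exposed to pin-transferred compounds, and grown at 37 °C for at least 48 hr. Viability was read as ATP luminescence.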
Active calls of the source: *; ? = inconclusive; . = no result; [ ] = another dose, or the depositor's remark. Unless noted, calls come from the whole dose curve; as a rule, active = well fitted curve in the direction sought with a large enough effect; inconclusive = small, poorly fitted or top-dose-only effect, or another doubt; inactive = no such curve, though single readings can be large; an effect the other way counts as inactive or inconclusive.

1. CC(=O)N1CCCC1c1nc2ccccc2n1Cc1cc(C)ccc1C (stereo unspecified)
2. CC(=O)N1CCCC1c1nc2ccccc2n1Cc1c(F)cccc1Cl (stereo unspecified)
3. CCNC(=O)c1ccc(C)c(-n2c(C)nc3cccnc32)c1
4. O=C1CCN(c2ccccc2)N1
5. Cc1ccc(N2C(=O)NC(C(F)(F)F)(C(F)(F)F)C3=C2CC(C)(C)CC3=O)cc1
6. OCCOc1nnnn1-c1ccccc1
7. C=CCNC(=S)NNC(=O)c1ccc([N+](=O)[O-])cc1
8. COc1ccc(C(=O)c2ccc(OC)c(Br)c2)cc1Br
compound no. | 1 | 2 | 3 | 4 | 5 | 6 | 7 | 8
TDP1 inh | 11% | 6% | 3% | . | 6% | -2% | 5% | 3%
uPA generation | . | . | . | 3% | 5% | 16% | 4% | -3%
miR-21 reporter | 25% | -8% | -3% | . | -2% | 0% | 3% | -6%
DT40 TDP1 no CPT | 23µM* | ? | -1% | -50% | ? | 4% | -14% | 21µM*
TDP1 cell CPT | 23µM* | ? | 4% | 29µM* | -15% | -2% | -16% | 18µM*

9. C=CCN(CC=C)C(=S)NC(=O)c1ccc([N+](=O)[O-])cc1
10. C=CCN(CC=C)C(=S)NC(=O)c1ccc(OC)c(Br)c1
11. CCN(CC)C(=S)NC(=O)c1ccc(OC)c(Br)c1
12. CCc1nc2ccc(C(=O)NCCCN3CCCC3=O)cn2c1N(C)Cc1ccc(OC)cc1
13. CCc1nc2ccc(C(=O)NCCN3CCOCC3)cn2c1N(C=O)Cc1ccc(OC)cc1
14. CCc1nc2ccc(C(=O)NCCN3CCOCC3)cn2c1N(C)Cc1ccc(OC)cc1
15. COc1ccc(C(=O)C2C(c3ccc(-c4ccccc4[N+](=O)[O-])o3)NC(=O)NC2(O)C(F)(F)F)cc1 (stereo unspecified)
16. O=C(CCS(=O)(=O)c1ccc(Br)s1)Nc1c(F)cccc1F
compound no. | 9 | 10 | 11 | 12 | 13 | 14 | 15 | 16
TDP1 inh | 2% | 6% | 8% | . | . | . | 3% | 1%
uPA generation | -2% | -13% | 6% | . | . | . | 3% | .
miR-21 reporter | 1% | 5% | -4% | . | . | . | 1% | -12%
DT40 TDP1 no CPT | 3.7µM* | 5.8µM* | ? | ? | -3% | 23µM* | 18µM* | -23%
TDP1 cell CPT | 5.8µM* | 12µM* | ? | 16µM* | 12% | ? | 21µM* | -17%

Single records, as listed above.
`C=CCN(CC=C)C(=S)NC(=O)c1ccc(OC)c(Br)c1` is entered as TDP1 inh: 6%; uPA generation: -13%; miR-21 reporter: 5%; DT40 TDP1 no CPT: 5.8µM*; TDP1 cell CPT: 12µM*
`C=CCN(CC=C)C(=S)NC(=O)c1ccc([N+](=O)[O-])cc1` is entered as TDP1 inh: 2%; uPA generation: -2%; miR-21 reporter: 1%; DT40 TDP1 no CPT: 3.7µM*; TDP1 cell CPT: 5.8µM*

The list goes on.
17. COc1cccc(C2c3[nH]c4ccccc4c3C[C@H]3C(=O)N(CCCCCO)CC(=O)N23)c1 (stereo partly specified)
18. COc1ccc(C2c3[nH]c4ccccc4c3C[C@H]3C(=O)N(C4CCN(Cc5ccccc5)CC4)CC(=O)N23)cc1OC (stereo partly specified)
19. Cc1ccccc1C1c2[nH]c3ccccc3c2C[C@H]2C(=O)N(C3CC3)CC(=O)N12 (stereo partly specified)
20. COc1cccc(C2c3[nH]c4ccccc4c3C[C@H]3C(=O)N(C4CCN(Cc5ccccc5)CC4)CC(=O)N23)c1 (stereo partly specified)
21. Cc1csc2ncc(C(=O)N3c4ccccc4CC3C)c(=O)n12 (stereo unspecified)
22. CCOC(=O)c1c(-c2ncc(C(F)(F)F)cc2Cl)noc1C
23. CC(C)(Cc1ccc(O)cc1)NC(=O)CC(=O)N/N=C/c1ccc(Cl)cc1
24. CC(C)(Cc1ccc(O)cc1)NC(=O)CC(=O)N/N=C/c1ccc([N+](=O)[O-])cc1
compound no. | 17 | 18 | 19 | 20 | 21 | 22 | 23 | 24
TDP1 inh | . | . | . | . | 0% | -2% | . | 5%
uPA generation | -7% | ? | 1% | ? | 11% | -5% | ? | 4%
miR-21 reporter | -1% | 17% | -2% | 20% | -5% | -3% | 16% | 0%
DT40 TDP1 no CPT | -8% | ? | ? | ? | 5% | 2% | 18µM* | -27%
TDP1 cell CPT | -18% | 21µM* | ? | 23µM* | 2% | -14% | ? | -29%

25. CSc1nc2nccc(/C=C\c3ccccc3)n2n1
26. CSc1nc2nccc(-c3ccc(Cl)cc3)n2n1
27. COc1ccc(O)c(CN2CC3CCC(CC3)C2)c1
28. CCn1c2ccccc2c2cc(CN3CCN(Cc4cc(OC)c(O)c(OC)c4)CC3)ccc21
compound no. | 25 | 26 | 27 | 28
TDP1 inh | 5% | -6% | . | 0%[12.3 µM]
uPA generation | . | -4% | 2% | .
miR-21 reporter | 28% | -9% | . | -22%
DT40 TDP1 no CPT | 23µM* | -12% | ? | 10µM*
TDP1 cell CPT | ? | -6% | 23µM* | 10µM*
